From ChEMBL document CHEMBL4477241, “Structure-Activity Relationship Studies for Enhancer of Zeste Homologue 2 (EZH2) and Enhancer of Zeste Homologue 1 (EZH1) Inhibitors” (J Med Chem, 2016)

By UniProt entry, the sequences of proteins in these tests, tags left out. Where a name states a change or a piece, a line headed by the entry shows the natural chain unless it says otherwise.
UniProt O75530: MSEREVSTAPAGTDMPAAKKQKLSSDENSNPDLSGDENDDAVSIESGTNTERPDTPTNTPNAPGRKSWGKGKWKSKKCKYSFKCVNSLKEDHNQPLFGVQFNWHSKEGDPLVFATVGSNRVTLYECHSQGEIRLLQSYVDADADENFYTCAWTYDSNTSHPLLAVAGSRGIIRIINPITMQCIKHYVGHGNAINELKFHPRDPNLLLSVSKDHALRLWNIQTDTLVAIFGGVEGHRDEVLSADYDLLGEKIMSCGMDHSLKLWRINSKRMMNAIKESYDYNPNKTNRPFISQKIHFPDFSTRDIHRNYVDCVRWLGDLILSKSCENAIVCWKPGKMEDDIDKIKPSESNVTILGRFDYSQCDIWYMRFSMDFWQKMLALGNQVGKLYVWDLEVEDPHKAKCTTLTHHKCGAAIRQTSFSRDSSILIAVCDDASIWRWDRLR
UniProt Q15022: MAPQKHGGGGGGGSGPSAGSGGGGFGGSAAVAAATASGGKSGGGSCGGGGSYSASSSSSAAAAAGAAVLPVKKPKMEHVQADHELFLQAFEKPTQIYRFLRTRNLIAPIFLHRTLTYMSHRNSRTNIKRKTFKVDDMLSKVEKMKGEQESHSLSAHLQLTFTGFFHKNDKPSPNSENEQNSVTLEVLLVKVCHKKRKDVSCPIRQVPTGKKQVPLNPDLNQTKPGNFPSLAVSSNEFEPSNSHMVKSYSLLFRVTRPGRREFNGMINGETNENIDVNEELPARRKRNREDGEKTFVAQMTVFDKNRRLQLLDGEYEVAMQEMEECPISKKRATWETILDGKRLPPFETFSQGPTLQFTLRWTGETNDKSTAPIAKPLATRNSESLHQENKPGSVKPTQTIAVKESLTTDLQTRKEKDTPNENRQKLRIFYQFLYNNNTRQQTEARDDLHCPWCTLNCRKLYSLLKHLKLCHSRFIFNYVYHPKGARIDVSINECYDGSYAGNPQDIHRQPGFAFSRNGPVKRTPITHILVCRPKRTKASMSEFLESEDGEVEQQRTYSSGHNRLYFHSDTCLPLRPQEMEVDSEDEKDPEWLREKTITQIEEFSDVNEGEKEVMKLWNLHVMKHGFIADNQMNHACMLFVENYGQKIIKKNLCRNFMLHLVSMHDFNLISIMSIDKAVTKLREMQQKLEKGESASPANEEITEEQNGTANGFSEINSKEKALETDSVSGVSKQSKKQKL
UniProt Q15910, whole entry: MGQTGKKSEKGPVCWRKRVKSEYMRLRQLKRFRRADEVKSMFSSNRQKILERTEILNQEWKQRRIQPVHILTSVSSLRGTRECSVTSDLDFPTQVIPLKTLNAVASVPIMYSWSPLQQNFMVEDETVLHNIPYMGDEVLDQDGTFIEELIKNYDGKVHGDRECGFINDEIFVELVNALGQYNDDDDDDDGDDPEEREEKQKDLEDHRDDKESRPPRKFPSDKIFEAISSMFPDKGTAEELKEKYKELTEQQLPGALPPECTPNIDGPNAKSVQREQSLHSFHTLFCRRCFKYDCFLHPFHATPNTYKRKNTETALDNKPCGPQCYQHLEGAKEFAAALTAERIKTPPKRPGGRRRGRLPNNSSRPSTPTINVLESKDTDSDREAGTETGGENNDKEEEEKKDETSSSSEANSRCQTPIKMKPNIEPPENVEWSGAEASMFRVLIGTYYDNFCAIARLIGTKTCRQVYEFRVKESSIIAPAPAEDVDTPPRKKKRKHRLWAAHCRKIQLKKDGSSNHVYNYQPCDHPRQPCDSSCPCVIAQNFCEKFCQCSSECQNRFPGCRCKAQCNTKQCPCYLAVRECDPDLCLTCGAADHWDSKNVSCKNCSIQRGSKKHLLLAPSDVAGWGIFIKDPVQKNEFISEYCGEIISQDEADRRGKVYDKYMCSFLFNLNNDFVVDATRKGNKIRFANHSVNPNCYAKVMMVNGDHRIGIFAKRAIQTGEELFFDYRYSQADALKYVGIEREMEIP

Molecular target: Histone-lysine N-methyltransferase EZH2 (Homo sapiens, UniProt O75530+Q15022+Q15910)
Assay: Inhibition of EZH2 histone methyltransferase activity of EZH2/EED/SUZ12 protein complex (unknown origin) using histone H3 peptide as substrate (21 to 44 residues) in presence of [3H]-S-adenosylmethionine after 2 hrs by scintillation proximity assay
Procedure, shortened: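 20 nM EZH2 trimeric complex with 2 μM 3H-SAM and 1 μM biotinylated H3(21–44) in 20 mM Tris-HCl pH 8, 5 mM DTT, 0.01% Triton X-100. Incubated 1 h at 23 °C, quenched with guanidine hydrochloride, then 2 h streptavidin flash-plate capture. Activity scaled between no-compound and no-enzyme counts. Compounds titrated 0.3 nM–5 μM in triplicate; IC50 by four-parameter logistic fit.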

- IC50: 12 nM
SMILES: Cc1cc(C)c(CNC(=O)c2cc(-c3ccc(N4CCN(C(C)C)CC4)nc3)cc3c2cnn3C(C)C)c(=O)[nH]1
